Tested on: NADH
Test: purified protein, by the assay type
Details: 25 °C, pH 7.2

Substance | Km (other: 400 μM CH2-H4folate, anaerobic) | Km (other: […] μM menadione) | kcat (other: […] μM menadione) | Km (other: 50 μM CH2-H4folate, anaerobic)
Phe223Ala MTHFR (Escherichia coli K-12; F223A) | 140 ± 7 µM | 585 ± 200 µM | 22 s⁻¹ | –
Phe223Leu MTHFR (Escherichia coli K-12; F223L) | – | 470 ± 115 µM | 31 s⁻¹ | 236 ± 36 µM

Reference: publication PMC2805098
